Rango-impB inh = prevents formation of the Rango-importin beta complex | Rango CFP/YFP FRET sensor + importin beta, 45 min | Potency, µM (top dose mostly 92.2 µM) | hit rate 0.031% among 340,000; calls by dose curve; also: nearly all actives have a fitted effect of over 15% in size
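FRET biosensor (snurportin 1 IBB flanked by EYFP and cerulean), 50 nM, with compound 5 min, then 0.125 microM importin beta in PBS, 1 mM DTT, 0.02% Tween-20, 0.1% BSA. CFP/YFP ratio read after 45 min at room temperature; pre-read flags interference.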
A-T KAP1 phos = potential ataxia-telangiectasia treatment; F2112 A-T fibroblasts, KAP-1 phosphorylation AlphaLISA; neocarzinostatin DNA damage 30 min before lysis; Potency, µM (titrated, usually from 57.5 µM), most hits filed as activators; hit rate 0.19% among 320,000; AID 485349; also: nearly all actives have a fitted effect of over 45% in size
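ATM-like activity read as KAP-1 phosphorylation via AlphaLISA donor/acceptor antibody pairs after lysis and 6 hr at 25C. Cells were ATM-null patient fibroblasts (F2112, hTERT), dosed 60 min, then exposed to the DSB inducer NCS for 30 min.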
PKM2 activator = increases activity of human pyruvate kinase M2. P14618. purified PKM2, Kinase-Glo ATP luminescence, activation; response scale: 0% is enzyme alone, no compound. Potency, µM (highest dose often 57.5 µM), actives largely listed as activators. hit rate 0.34% among 260,000; also: nearly all actives have a fitted effect of over 55% in size
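hPK-M2, >95% pure; 0.1 mM ADP / 0.5 mM PEP final; imidazole pH7.2 buffer w/ 7 mM MgCl2, 50 mM KCl; 1 h RT; Kinase-Glo lum. Intermediate enzyme activity for dual inhibitor/activator qHTS.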
IL-2 act = activates IL-2 in a cell-based reporter assay. IL-2 activation reporter assay, cell-based qHTS; stimulated with anti-CD3/CD4/CD28 beads; in transgenic mouse T cells. activation, % (series mostly up to about 46 µM). hit rate 0.065% among 360,000; in the data active = activation above about 50%; inconclusive = mostly about 30% to 49%
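Readout is EGFP and DsRed signal by fluorescent plate cytometry after 18 h at 37 degrees C. Transgenic mouse T cells (750/well) received compound for 60 min before bead stimulation (anti-CD3, anti-CD4, anti-CD28); memory T cells served as non-tolerant control.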
Rango release inh = inhibitors of RanGTP-induced Rango-importin beta complex dissociation; AID 540253; Potency, µM (highest dose often 46.1 µM); hit rate 0.071% among 340,000; Biochemical FRET Rango-importin beta, RanGTP-induced dissociation; calls by dose curve; also: nearly all actives have a fitted effect of over 45% in size
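Rango FRET biosensor (snurportin-1 IBB flanked by N-terminal EYFP and C-terminal CFP10) at 0.1 uM, with 0.25 uM importin beta in PBS, 1mM DTT, 0.02% Tween-20, 0.1% BSA. 0.6 uM Ran, 2mM GTP and 0.2 uM RCC1 were then added for 45 min at room temperature. Inhibition read as loss of FRET rise.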
Hits are given with their value; i = inactive; ? = inconclusive; nt = not tested or not shown; [ ] = another dose, or the depositor's remark. An excerpt weighted towards active compounds, which were near 0.59% of everything screened. Unless noted, calls follow the shape of the dose curve; as a rule, active = well fitted activation curve with a large enough effect; inconclusive = small, poorly fitted or top-dose-only effect; inactive = no such curve, though single readings can be large or run the other way.

SMILES | Rango-impB inh | A-T KAP1 phos | PKM2 activator | IL-2 act | Rango release inh
CCc1cc2c(-c3ccccc3)cc(=O)oc2cc1OC(=O)c1cccs1 | ? | i | i | i | 5.17µM
Cc1cc2[nH]c(=O)c(=O)[nH]c2cc1S(=O)(=O)Nc1ccccc1F | i | i | 10µM | i | i
COc1cc(C)c(S(=O)(=O)Nc2ccccc2F)cc1C | i | i | i | i | i
CC(C)c1nc(SCC(=O)Nc2ccc([N+](=O)[O-])cc2Br)n[nH]1 | i | i | ? | i | i
O=C(CSc1ncn[nH]1)Nc1ccc([N+](=O)[O-])cc1Br | ? | nt | 7.08µM | i | i
Nc1nc(SCC(=O)Nc2ccc([N+](=O)[O-])cc2Br)n[nH]1 | i | i | 3.16µM | i | i
O=C(CSc1n[nH]c(-c2cccnc2)n1)Nc1ccc([N+](=O)[O-])cc1Br | i | i | i | i | i
CCOc1ccc2c(c1)s/c(=N\S(=O)(=O)c1ccc(OC)cc1)n2C(F)F | i | nt | 1.58µM | i | i
OC(C#Cc1ccccn1)c1cccs1 (stereo unspecified) | i | 14.1µM | ? | i | i
CCSc1ccc([C@@H]2[C@H]3C(=O)N(C)C(=O)[C@H]3[C@]3(C(=O)OC)CCCCN23)cc1OC | i | i | nt | i | i
Cn1cc(CN2C[C@]3(C)C[C@H]2CC(C)(C)C3)c(-c2ccc3c(c2)OCCO3)n1 | i | i | i | i | i
Fc1ccc(CSc2ncnc3ccccc23)cc1 | i | i | 25.1µM | i | i
c1ccc(CSc2ncnc3ccccc23)cc1 | i | i | i | i | i
COCCN1C[C@@H](CO)O[C@@H](n2cnc3c(NC4CC4)ncnc32)C1 | nt | nt | nt | i | nt
COc1cc2c(cc1OC)C(Nn1cnnc1)=NC1(CCCC1)C2 | i | i | i | i | i
CCC(C)N1CCN(S(=O)(=O)Cc2ccccc2)CC1 (stereo unspecified) | i | i | i | i | i
CC(=O)N1CC2(CC(c3ccc(Cl)cc3Cl)=NO2)CN1c1cccc(Cl)c1 (stereo unspecified) | nt | nt | nt | i | nt
CN1C(=O)c2cccc3c(S(=O)(=O)Nc4ccccc4F)ccc1c23 | ? | i | 11.2µM | i | i
CNS(=O)(=O)c1ccc2c3c(cccc13)C(=O)N2C | ? | i | i | i | ?
Cc1cc(NS(=O)(=O)c2ccccc2)cc(Cl)c1O | i | i | 15.8µM | i | i
CC(=O)N1[C@H](C)C=C[C@]1(Cc1ccccc1)C(=O)NCCN1CCOCC1 | i | nt | i | i | i
Fc1ccccc1CCNc1c2c(nc3ncnn13)CCCC2 | i | i | i | i | i
c1ccc(CCNc2c3c(nc4ncnn24)CCC3)cc1 | i | i | 25.1µM | i | i
Cc1cc2oc(=O)sc2cc1NS(=O)(=O)c1ccccc1 | i | i | ? | i | i
Cc1cc2oc(=O)sc2cc1NS(=O)(=O)c1cccc2cccnc12 | i | i | 31.6µM | i | i
SMILES | Rango-impB inh | A-T KAP1 phos | PKM2 activator | IL-2 act | Rango release inh
O=C(Nc1cccc(C(F)(F)F)c1)c1ccc(Cn2cc(Br)cn2)o1 | ? | i | i | i | i
O=C(Nc1ccc(C(F)(F)F)cc1Cl)c1ccc(Cn2cc(Br)cn2)o1 | i | nt | 28.2µM | i | i
CCC(=O)NC(c1ccc(C)cc1)c1cc([N+](=O)[O-])c2cccnc2c1O (stereo unspecified) | i | i | i | 147.2 | i
CC(=O)NC(c1ccc(C)cc1)c1cc([N+](=O)[O-])c2cccnc2c1O (stereo unspecified) | i | i | i | i | i
COc1ccc(CCNC(=O)CCCCCN2C(=O)[C@@H]3Cc4ccccc4CN3C2=O)cc1OC | i | i | nt | i | i
C=CCn1c(SCC(=O)Nc2ccc(N3CCOCC3)cc2)nnc1-c1ccco1 | i | 25.1µM | nt | i | i
C=CCn1c(SCC(=O)Nc2ccc(N3CCOCC3)cc2)nnc1-c1ccncc1 | i | i | i | i | i
CC1(C(=O)NCc2cccs2)CCN1C(=O)Cc1cccc2ccccc12 (stereo unspecified) | nt | nt | nt | i | nt
Cc1ccc(S(=O)(=O)NC(C)(C)CN2CCCCC2)cc1 | i | i | i | i | i
Cc1cc([N+](=O)[O-])ccc1-c1ccc(C2Nc3ccccc3C(=O)N2O)o1 (stereo unspecified) | i | i | 14.1µM | i | i
COc1cc(CN2CCNC(=O)C2CC(=O)N2CCCO2)cc(OC)c1 (stereo unspecified) | i | i | 14.1µM | i | i
CCOc1ccc(Nc2nc(N)nc(CN(C)C3CCCCC3)n2)cc1 | 58µM | i | i | i | i
C[C@H]1Cc2c(-c3ccccc3)nc3c(c2CO1)CN(C(=O)NCCc1c[nH]c2ccccc12)CC3 | nt | nt | i[11.5 µM] | nt | nt
CC1CCN(S(=O)(=O)N2CCC(C(=O)NCc3cccnc3)CC2)CC1 | i | i | i | i | i
O=C1c2oc3ccccc3c(=O)c2C(c2cccc(Br)c2)N1Cc1ccco1 (stereo unspecified) | i | i | 20µM | i | i
COc1ccc(/C=C(\NC(=O)c2ccccc2)C(=O)NCCN2CCOCC2)cc1 | ? | i | i | i | ?
O=c1[nH]c(=O)c2nc3c4ccccc4c4ccccc4c3nc2[nH]1 | ? | i | 11.2µM | i | ?
COc1ccc2cc(CN(CCc3ccccc3)Cc3nnnn3Cc3ccco3)c(=O)[nH]c2c1 | ? | i | i | i | 14.6µM
CCc1cccc2c(-c3ccccc3)c3c(nc12)OCC3 | nt | nt | i | nt | nt
CCOC(=O)COc1ccc(S(=O)(=O)N2CCN(c3ccccc3)CC2)cc1 | i | 25.1µM | i | i | i
COc1ccc(S(=O)(=O)N2CCN(C(=O)COc3ccc4c(C)cc(=O)oc4c3)CC2)cc1 | i | i | 14.1µM | i | i
O=C(CCl)N1CCN(S(=O)(=O)c2ccc3ccccc3c2)CC1 | i | i | 12.6µM | i | i
O=C(COc1ccccc1)N1CCN(S(=O)(=O)c2ccc(Br)cc2)CC1 | i | i | nt | i | i
CCC(C)c1ccc(S(=O)(=O)N2CCN(C(=O)COc3ccc4c(C)cc(=O)oc4c3)CC2)cc1 (stereo unspecified) | i | nt | i | i | i
COc1ccc(S(=O)(=O)N2CCN(C(=O)COc3ccccc3)CC2)cc1 | i | i | 14.1µM | i | i
CCCCCCNC(=O)N[C@H](C(=O)NCCC[C@H]1CN2C(=NC[C@H]2C)N1CCC(c1ccccc1)c1ccccc1)C(C)O (stereo partly specified) | nt | i | i | nt | nt
Cc1sc2nc(SCC(=O)N(C)c3ccccc3)n(C)c(=O)c2c1C | i | i | i | i | i
COc1ccc2c(CC(=O)N3CCN(S(=O)(=O)c4cccs4)CC3)coc2c1 | i | i | 22.4µM | i | i
O=C(COc1ccc(-c2nnco2)cc1)N1CCN(S(=O)(=O)c2ccc3ccccc3c2)CC1 | ? | i | 7.08µM | i | i

Source: PubChem (National Center for Advancing Translational Sciences (NCATS))
